## Yeast mating assay 2: variants of the scFv Ab-95

From the AlphaSeq antibody data of Engelhart et al. 2022 (doi:10.1038/s41597-022-01779-4), copy in the FLAb collection.

The target is the same throughout: PDVDLGDISGINAS, from the HR2 region of SARS-CoV-2 spike.

Parent scFv Ab-95: VH joined to VL by a 15-residue (Gly4Ser)3 linker. Changes lie in the light chain CDRs alone.
VH: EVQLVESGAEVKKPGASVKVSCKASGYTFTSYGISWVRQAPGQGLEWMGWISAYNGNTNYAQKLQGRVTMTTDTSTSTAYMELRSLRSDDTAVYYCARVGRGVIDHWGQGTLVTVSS
VL: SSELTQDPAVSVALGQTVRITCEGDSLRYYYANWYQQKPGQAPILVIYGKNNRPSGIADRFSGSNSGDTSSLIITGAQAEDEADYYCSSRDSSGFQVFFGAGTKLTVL

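Variants in AAYL52 differ from the parent at up to three CDR positions; double and triple changes were sampled at random. The assay is AlphaSeq: two haploid yeast populations carry antibody and antigen on their surface. Pairs that bind mate more often; barcode pairs of the diploids are counted by sequencing. Each replicate has its own calibration line, from reference interactions of the BCL2 family. The assay was run in three technical replicates.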

Each variant is given by its three light chain CDRs, as the data file delimits them; those of the parent are EGDSLRYYYAN, GKNNRPS, SSRDSSGFQVF. Scale: log10 of Kd in nM, estimated from mating counts; low values are strong binders. Where no diploid with the target was found in that replicate, the entry reads "ND": below detection, most likely a poor binder, though not proof of it. Empty control strains, which show no peptide, gave a signal in 28% of pairings with library AAYL52; the median was 3.91 and 95% of these signals were weaker than 2.90. No background was subtracted. For each scFv, signals with the empty controls are counted beside the result, with their mean in brackets.

CDR-L1,CDR-L2,CDR-L3,"replicates, log10 nM",control signals
EGDQLEYYYAN,GKNNRPS,HSRDSSGFQVF,ND / ND / ND,1/9 (3.93)
EGDTLRYYYAN,GKNNRPS,SSAVSSGFQVF,4.35 / 3.02 / 3.17,2/9 (3.78)
EGDSLRYYYAN,GYNNRIS,SSRDSSGVQVF,ND / 4.93 / 3.30,2/9 (4.38)
EGDSLRYYYAN,GANNRPS,SSRDSSVFFVF,2.23 / 2.97 / 1.88,4/9 (4.27)
EGPSLREYYAN,GKNNRPS,SSRDSKGFQVF,2.49 / 2.84 / 2.58,2/9 (3.45)
EGDSLRYYYAI,NKNLRPS,SSRDSSGFQVF,3.93 / ND / ND,4/9 (3.99)
EGDSLRKYYQF,GKNNRPS,SSRDSSGFQVF,4.01 / ND / ND,3/9 (3.48)
EGDSLRYYYAN,GKNNRPM,SSRLSSGFQVF,3.08 / 2.55 / 2.97,4/9 (3.51)
EGDSLRYYYAN,GKNNRGS,SPRDSSGFQVF,2.40 / 2.18 / 3.13,3/9 (3.39)
EGDSLRYYLAN,GKNNDPS,SSRDSSGFVVF,ND / 4.00 / ND,3/9 (3.99)
EGDSLRYYYWN,GKNNAPS,SSRDSSGFQIF,ND / 3.72 / ND,3/9 (4.59)
EDDSLRYYYAN,GKNNRPS,SSRDSSGGQVF,3.85 / 2.98 / 2.26,3/9 (3.67)
EADSLRYYYAN,GKNNRPS,SERMSSGFQVF,4.14 / ND / 3.18,1/9 (4.26)
EGDSLRYYYAN,PKNNRPS,SSRDSSGCQKF,3.96 / 3.36 / ND,4/9 (3.88)
EGDSLRYYYQN,GKNNKWS,SSRDSSGFQVF,ND / ND / 4.52,6/9 (4.27)
EGDSLRYYNAP,GKNGRPS,SSRDSSGFQVF,4.89 / 4.49 / ND,5/9 (4.50)
EGASLRYYYAN,GKNNWPS,SSRDSSGFQVE,ND / ND / ND,1/9 (3.43)
EGDSLRYYYAN,KKNNRPI,SSRDSSGSQVF,3.42 / 3.85 / 4.25,1/9 (3.61)
EGDWLRYYYAN,GKNNRPS,SSRDTSGFQLF,4.72 / ND / ND,3/9 (4.20)
EGDCLRYPYAN,GKNNRPH,SSRDSSGFQVF,3.75 / ND / 3.49,3/9 (3.22)
IGDSLRYYYAN,GKNSRPS,SSRDSSGFQVC,2.49 / 2.53 / 2.43,4/9 (4.57)
EGDSLRYYYNN,GKNANPS,SSRDSSGFQVF,ND / ND / 4.79,3/9 (4.32)
NGDSLRYYYAN,GKPNRPS,SSRDSSGFAVF,3.15 / 3.50 / 4.23,1/9 (3.08)
VGDCLRYYYAN,GKNIRPS,SSRDSSGFQVF,2.66 / 4.12 / 3.00,5/9 (3.32)
EGLSLRYYYAN,YKNNRPS,SKRDSSGFQVF,ND / 5.07 / 3.41,3/9 (4.16)
EGDSLRYYQPN,GKNYRPS,SSRDSSGFQVF,1.33 / 1.35 / 1.04,3/9 (4.33)
EKDSLRYYYAN,GKNNRPS,NSRDSAGFQVF,3.19 / 3.87 / 4.11,3/9 (3.60)
EGDSLRYYYAN,GKNNRPS,SSRDSQGFRVM,3.63 / 2.94 / 3.06,5/9 (4.29)
EGDSLRYYYAN,IKNNRPY,SSRDSSGFQVF,3.43 / ND / ND,3/9 (3.81)
SGDSLRHYYAK,GKNNRPS,SSRDSSGFQVF,4.11 / 3.85 / ND,3/9 (4.02)
YGDSLRYYYAN,GKNNWPS,SSRDSSSFQVF,ND / 4.68 / 4.54,6/9 (3.63)
EGDSLRYYAWN,GKSNRPS,SSRDSSGFQVF,4.10 / 5.63 / 3.56,4/9 (3.90)
EGDSLRYCYIN,GHNNRPS,SSRDSSGFQVF,5.66 / 5.80 / ND,3/9 (4.52)
EGDSLRYYYAN,GKNNRPS,SSRPSSGFQYG,2.02 / 1.71 / 1.53,1/9 (4.16)
EGDSLRYCYRN,GKNNRPS,SSRDSSGHQVF,ND / ND / ND,2/9 (4.65)

Again, the first 2 entries without any signal:

{"CDR-L1": "EGDQLEYYYAN", "CDR-L2": "GKNNRPS", "CDR-L3": "HSRDSSGFQVF", "replicates, log10 nM": "ND / ND / ND", "control signals": "1/9 (3.93)"}
{"CDR-L1": "EGASLRYYYAN", "CDR-L2": "GKNNWPS", "CDR-L3": "SSRDSSGFQVE", "replicates, log10 nM": "ND / ND / ND", "control signals": "1/9 (3.43)"}

For reference, the parent read 2.31 as the reference entry and 2.25 as a member of this library.